Laboratory results reported in PMC8953856, “α/β-Peptides as Nanomolar Triggers of Lipid Raft-Mediated Endocytosis through GM1 Ganglioside Recognition” (Pharmaceutics, 2022).

What was measured:
ganglioside GM1 = test: Isothermal titration calorimetry (ITC) with GM1:DPC 1:5 bicelles; settings: 35 °C, GM1:DPC 1:5 (GM1 300 µM in syringe) injected into 15 µM ligand in cell, pH 7.2 phosphate buffer, one- or two-site fit, experiments repeated twice, read-out: Binding affinities (KD) to ganglioside GM1
Procedure: Isothermal Titration Calorimetry: ITC was performed using a MicroCal VP-ITC microcalorimeter at 35 °C. The monosialoganglioside GM1 was obtained from Biosynth-Carbosynth (Bratislava, Slovakia, product code: OG03918, C73H131N3O31·xNa, HPLC purity > 95%). The n-dodecylphosphocholine (DPC) was obtained from Avanti (Alabaster, Alabama, product code: 850336, C17H38NO4P, purity > 99%). In individual titrations, 15 µL of solution containing GM1:DPC 1:5 was injected into the ligand solution in the cell from a computer-controlled 300 µL microsyringe at time intervals of 300 s. The GM1:DPC micelle mixture was prepared in the same pH 7.2 phosphate buffer as the ligand in the cell. The concentration of the ligand in the cell was 15 µM. The concentration of GM1 in the syringe was 300 µM. In control experiments, GM1:DPC was titrated into the cell containing buffer without ligand. To rule out lipid clustering, control measurements were performed with pure GM1 in the syringe, which yielded a […], indicating the GM1:DPC interaction in the micelles (Figure S6). No aggregation of the micelles was observed after titration, which rules out any secondary inter-particle effects induced by ligand binding. […] Our finding is in agreement with the literature results that mixed micelles of GM1 and DPC are readily formed. […]

[1] = Protease assay with chymotrypsin; type: in vitro ADME; settings: chymotrypsin (isolated protease) in buffer; 100 mM TRIS–HCl pH 8.0 with 10 mM CaCl2; peptide 100 mM (so in the source); 50 mL of 0.5 mg/mL chymotrypsin stock to 500 mL peptide solution (so in the source); samples at 2, 6, 25, 60 min; HPLC–MS; < 24 = peak not detected at 2 min, 3% detection limit
Procedure: Protease assays: Peptides were dissolved in 100 mM TRIS–HCl buffer (pH 8.0) containing 10 mM CaCl2 at 100 mM concentration. Chymotrypsin (Sigma-Aldrich, Budapest, Hungary) stock solution was 0.5 mg/mL in the same buffer. A total […] peptide solution was measured in a reaction vessel and […] protease stock was added. Samples of […] were taken after 2, 6, 25 and 60 min. The samples were diluted into […] 5% TFA aliquots. The samples were then injected into HPLC–MS using a Phenomenex C18-XB Peptide column (250 × 4.6 mm, […]).

[2] = Protease assay with trypsin; type: in vitro ADME; settings: trypsin (isolated protease) in buffer; 100 mM TRIS–HCl pH 8.0 without CaCl2; peptide 100 mM (so in the source); protease stock 0.5 mg/mL; samples at 2, 6, 25, 60 min; HPLC–MS; < 24 = peak not detected at 2 min, 3% detection limit

NCCCC[C@H](NC(=O)[C@H](Cc1ccc(O)cc1)NC(=O)[C@@H](N)Cc1c[nH]c2ccccc12)C(=O)N[C@@H](Cc1ccc(O)cc1)C(=O)N[C@@H](Cc1c[nH]c2ccccc12)C(N)=O [WYKYW]
Kd (ganglioside GM1): 23.8 nM | half-life [1]: < 24 s | half-life [2]: < 24 s
